Test results as given in patent publication US9101562B2, “Additives for chlorine dioxide-containing compositions” (BASF CORPORATION, priority 2010, dated 2015).

Assay: Chlorine dioxide compatibility: ClO2 decrease in 200 ppm ClO2 test samples containing an additive (UV/Vis absorption or titration)
Assay type: physicochemical
Details: Table 3; 200 ppm ClO2 test sample, single additive at listed wt. %; interpolated to 8 hours

OCCN(CCO)CCO
ClO2 decrease @ 8 hrs: 96%
